Data published in patent US11642346B2, “Combination therapy for treating cancer” (Epizyme, Inc., priority 2017, dated 2023).

Experiments:
BT-12 cells [1] = conditions: X-ray 0 to 8 Gy, then 10 μM tazemetostat for seven days
BT-12 cells [2] = conditions: tazemetostat 7 days, then X-ray 2 Gy, in vitro

Compound: CCN(c1cc(-c2ccc(CN3CCOCC3)cc2)cc(C(=O)NCc2c(C)cc(C)[nH]c2=O)c1C)C1CCOCC1 [tazemetostat]
- Combination effect on cell proliferation, cells irradiated immediately prior to treatment with tazemetostat (BT-12 cells [1]): combination benefit
- Combination effect on proliferation, X-ray irradiation after tazemetostat priming (BT-12 cells [2]): Antagonism was not found
